The target in this assay is T1, Aminopeptidase N (Plasmodium falciparum FcB1/Columbia, UniProt O96935).
T1 sequence (O96935 whole entry): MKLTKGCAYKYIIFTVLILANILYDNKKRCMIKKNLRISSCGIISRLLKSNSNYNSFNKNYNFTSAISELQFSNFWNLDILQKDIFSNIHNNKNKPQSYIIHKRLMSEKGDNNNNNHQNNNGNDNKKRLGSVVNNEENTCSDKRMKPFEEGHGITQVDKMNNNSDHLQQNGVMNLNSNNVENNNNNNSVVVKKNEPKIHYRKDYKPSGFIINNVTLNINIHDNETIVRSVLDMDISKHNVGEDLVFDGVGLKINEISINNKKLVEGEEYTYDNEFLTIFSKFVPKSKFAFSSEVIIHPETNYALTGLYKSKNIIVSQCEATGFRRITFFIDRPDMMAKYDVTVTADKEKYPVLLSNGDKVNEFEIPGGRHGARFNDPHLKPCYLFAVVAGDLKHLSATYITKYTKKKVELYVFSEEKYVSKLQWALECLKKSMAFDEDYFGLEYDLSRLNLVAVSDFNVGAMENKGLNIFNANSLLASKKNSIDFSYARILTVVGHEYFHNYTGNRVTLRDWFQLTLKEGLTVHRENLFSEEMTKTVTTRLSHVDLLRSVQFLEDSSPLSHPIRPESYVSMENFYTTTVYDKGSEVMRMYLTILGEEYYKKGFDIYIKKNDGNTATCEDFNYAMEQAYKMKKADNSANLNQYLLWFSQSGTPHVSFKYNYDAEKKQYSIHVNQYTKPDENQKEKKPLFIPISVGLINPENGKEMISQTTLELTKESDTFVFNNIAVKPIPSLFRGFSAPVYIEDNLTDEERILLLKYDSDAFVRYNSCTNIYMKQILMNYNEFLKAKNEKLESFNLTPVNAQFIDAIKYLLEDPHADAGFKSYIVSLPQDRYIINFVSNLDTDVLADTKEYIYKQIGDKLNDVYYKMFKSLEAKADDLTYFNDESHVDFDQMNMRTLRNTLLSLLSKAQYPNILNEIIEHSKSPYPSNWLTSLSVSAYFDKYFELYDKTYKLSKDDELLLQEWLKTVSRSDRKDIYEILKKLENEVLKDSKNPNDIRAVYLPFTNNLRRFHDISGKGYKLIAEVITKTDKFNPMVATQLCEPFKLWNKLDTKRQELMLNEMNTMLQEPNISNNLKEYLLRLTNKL
As to the kind of experiment: Inhibition of Plasmodium falciparum recombinant M1-aminopeptidase expressed in Escherichia coli after 40 mins uisng fluorogenic substrate L-Leucyl-7-amido-40-methylcoumarin by fluorescence spectrophotometry. An outline of the steps:
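Recombinant PfA-M1 expressed in E. coli, 0.9 nM, in 50 mM HEPES pH 7.5, 100 mM NaCl, 0.1% Triton X-100. Ki by Dixon plots (1/rate vs [I]) and secondary plots vs 1/[S]. Competitive mode checked with a/v vs i plots.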

pKi: −log10 of the molar value.

On to `COc1ccc(C[C@@H](N)[C@H](O)C(=O)N[C@@H](CC(C)C)C(=O)O)cc1`, for which the pKi – broadly, −log10 of the Ki, conventionally taken in molar units – is 7.37.

As to `CC(C)C[C@H](NC(=O)[C@@H](O)[C@H](N)Cc1ccc(OCc2ccccc2)cc1)C(=O)O`, the pKi was 6.31.

Values taken from ChEMBL document CHEMBL1687941 (J Med Chem, 2011).
